# Literature values as cited in US20090060925A1, “Rage Fusion Proteins and Methods of Use” (THE TRUSTEES OF COLUMBIA UNIVERSITY IN THE CITY OF, priority 2004, published 2009).
# Conditions: cited from earlier work
substance,measurement,value
sRAGE: RAGE protein that does not include the transmembrane region or the cytoplasmic tail; species not printed at the results [reference compound],"half-life in human plasma, in words",only a few hours
